ChEMBL document CHEMBL4414601 (J Med Chem, 2019)
≈ marks a conversion by molar mass, not a printed value.

Chains of the proteins cited; added tags and fusions are not shown. Lines headed by an entry give the natural chain unless they say otherwise; changes in a name come on top.
UniProt Q12809: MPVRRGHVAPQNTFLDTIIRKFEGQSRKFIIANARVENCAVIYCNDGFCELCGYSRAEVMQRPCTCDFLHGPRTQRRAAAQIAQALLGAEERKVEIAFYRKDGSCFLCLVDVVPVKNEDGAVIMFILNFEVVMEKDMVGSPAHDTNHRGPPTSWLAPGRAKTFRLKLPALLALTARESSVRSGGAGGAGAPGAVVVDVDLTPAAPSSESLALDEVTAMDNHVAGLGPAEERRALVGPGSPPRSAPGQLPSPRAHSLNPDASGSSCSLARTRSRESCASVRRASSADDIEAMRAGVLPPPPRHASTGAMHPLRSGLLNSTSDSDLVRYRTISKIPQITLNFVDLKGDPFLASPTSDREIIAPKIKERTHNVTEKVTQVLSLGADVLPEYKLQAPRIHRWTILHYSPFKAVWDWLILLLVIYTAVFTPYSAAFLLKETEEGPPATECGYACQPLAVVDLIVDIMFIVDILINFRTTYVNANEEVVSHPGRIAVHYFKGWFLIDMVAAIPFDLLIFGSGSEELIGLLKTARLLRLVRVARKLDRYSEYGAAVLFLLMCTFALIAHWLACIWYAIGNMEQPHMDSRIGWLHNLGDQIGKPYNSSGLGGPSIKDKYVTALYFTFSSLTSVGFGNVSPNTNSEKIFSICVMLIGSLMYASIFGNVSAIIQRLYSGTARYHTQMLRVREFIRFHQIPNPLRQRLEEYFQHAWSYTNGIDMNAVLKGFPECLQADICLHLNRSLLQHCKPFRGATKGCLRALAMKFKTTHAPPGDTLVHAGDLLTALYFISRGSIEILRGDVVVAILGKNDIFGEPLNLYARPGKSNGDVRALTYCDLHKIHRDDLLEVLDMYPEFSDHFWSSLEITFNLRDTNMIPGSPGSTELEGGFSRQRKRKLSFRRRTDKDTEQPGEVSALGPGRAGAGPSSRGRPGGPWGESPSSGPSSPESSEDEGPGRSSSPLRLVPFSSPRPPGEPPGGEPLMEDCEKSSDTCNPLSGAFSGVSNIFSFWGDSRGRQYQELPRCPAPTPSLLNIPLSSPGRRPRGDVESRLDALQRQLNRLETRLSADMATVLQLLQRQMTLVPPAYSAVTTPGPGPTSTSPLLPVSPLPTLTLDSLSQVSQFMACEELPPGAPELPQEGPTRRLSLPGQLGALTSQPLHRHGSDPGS

Legend:
[1] = biological target: Voltage-gated inwardly rectifying potassium channel KCNH2 (Homo sapiens, UniProt Q12809)
[2] = buffer
[3] = Selectivity ratio of EC50 for cytotoxicity against mouse L929 cells to EC50 for Antiplasmodial activity against Plasmodium falciparum 3D7A erythrocytic stage; type: toxicity, cell-based; conditions: read-out: Ratio EC50

SMILES	IC50 [1] [µM]	solubility [2] [µM]	selectivity ratio [3]
CN1CCC(C(=O)Nc2nc(-c3ccc(F)cc3)c(-c3ccnc(Nc4ccc(N5CCNCC5)cc4)n3)s2)CC1	50.1	–	–
COc1cc(Nc2nccc(-c3sc(C4CCNCC4)nc3-c3ccc(F)cc3)n2)cc(C)n1	–	490 (≈ 234 µg/mL)	–
Cc1cc(Nc2nccc(-c3sc(C4CCNCC4)nc3C3CC3)n2)ccn1	4.2	–	105
Oc1cc(Nc2nccc(-c3sc(C4CCNCC4)nc3-c3ccc(F)cc3)n2)ccn1	–	390 (≈ 175 µg/mL)	–
Fc1ccc(-c2nc(N3CCCC3)sc2-c2ccnc(Nc3ccc(N4CCNCC4)cc3)n2)cc1	5.6	–	–
Fc1ccc(-c2nc(N3CCOCC3)sc2-c2ccnc(Nc3ccc(N4CCNCC4)cc3)n2)cc1	5.4	–	–
CCCS(=O)(=O)Nc1nc(-c2ccc(F)cc2)c(-c2ccnc(Nc3ccc(N4CCNCC4)cc3)n2)s1	–	< 1	–
